Biological target: influenza virus polymerase (Influenza A virus, UniProt P03433)
Format: cell-based, influenza virus A/PR/8/34

Q: Which “Fold increase in EC50 compared to wild-type” value does the source give for `NC(=O)c1ncn([C@@H]2O[C@H](CO)[C@@H](O)[C@H]2O)n1` [Ribavirin, ribavirin] here?
A: 1.0 fold

Reference: paper PMC8838982 (Bioorganic chemistry, 2021)
